The structures appear in SMILES notation. This is a selection; strong and weak results do not stand in their true shares. Activity calls are given as the source filed them.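 How the source made its calls: active means compounds causing at least 50% loss of cell viability in the single-dose screen, relative to plate controls; inactive means the rest.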

A short description of this experiment: viability loss with TRAIL in NB7+C8 cells, primary screen, TRAIL sensitizer project, cell-based, ATPlite luminescence (AID 624354). The settings on record: at 10 µM, stronger effect = higher value.
With `Nc1ccc(CCCCOc2ccccc2)cc1`, the inhibition (viability loss, TRAIL sensitization) was inactive: 25.4%.

`COc1ccc(N)c([N+](=O)[O-])c1[N+](=O)[O-]`: the inhibition (viability loss, TRAIL sensitization) was inactive: 20.5%.

For the compound `CN(C)C1(CNC(=O)c2ccc(Cl)c(S(N)(=O)=O)c2)CCCCC1`, the inhibition (viability loss, TRAIL sensitization) was inactive: 13.7%.

Consider `O=P(Nc1ccccn1)(c1ccc(Br)cc1)c1ccc(Br)cc1`, for which the inhibition (viability loss, TRAIL sensitization) was inactive: 3.65%.

With `O=P(Nc1nc2ccccc2s1)(c1ccccc1)c1ccccc1`, the inhibition (viability loss, TRAIL sensitization) is inactive: -12.6%.

For `C[C@H]1OP(=O)(Oc2ccccc2)[C@H](O)[C@H](O)[C@H]1N=[N+]=[N-]` (stereo not given in full), the inhibition (viability loss, TRAIL sensitization) was inactive: 13.9%.

For `O=[N+]([O-])c1ncn(CCn2cnc([N+](=O)[O-])n2)n1`, the inhibition (viability loss, TRAIL sensitization) is inactive: -11.1%.

In the case of `CC(=O)NC(SC(=S)N(C)C)C(Cl)(Cl)Cl` (stereo not given), the inhibition (viability loss, TRAIL sensitization) was inactive: 24.3%.

For `O=[N+]([O-])c1ccc(O)c(/C=N/Nc2ccc([N+](=O)[O-])cc2[N+](=O)[O-])c1`, the inhibition (viability loss, TRAIL sensitization) was active: 52.3%.

Turning to `O=[As](O)(c1ccccc1)c1ccc(O)cc1`, the inhibition (viability loss, TRAIL sensitization) was inactive: -9.68%.

As to `Nc1ccc([As](=O)(O)c2ccc([N+](=O)[O-])cc2)cc1`, the inhibition (viability loss, TRAIL sensitization) is inactive: -6.46%.

Take `C(Cc1nn[nH]n1)Cc1nn[nH]n1`: the inhibition (viability loss, TRAIL sensitization) is inactive: -6.24%.

For `O=C(OC1CN2CCC1CC2)c1cccc(Cl)c1` (stereo not given), the inhibition (viability loss, TRAIL sensitization) was inactive: 5.09%.

For the compound `O=P(Nc1nccs1)(c1ccccc1)c1ccccc1`, the inhibition (viability loss, TRAIL sensitization) was inactive: -27%.

In the case of `CC(C)C(=O)NC(Sc1ccccc1)C(Cl)(Cl)Cl` (stereo not given), the inhibition (viability loss, TRAIL sensitization) was inactive: 7.37%.

As to `c1nnnn1CCn1cnnn1`, the inhibition (viability loss, TRAIL sensitization) was inactive: -0.022%.

Regarding `O=P1(Nc2nc3ccc(Cl)cc3s2)COc2ccccc2O1` (stereo not given), the inhibition (viability loss, TRAIL sensitization) was inactive: 1.41%.

On to `CCOc1ccc(C2=NCC(CBr)S2)cc1` (stereo not given), for which the inhibition (viability loss, TRAIL sensitization) was inactive: -8.12%.

Take `CCc1cc(O)c([N+](=O)[O-])c(C)c1[N+](=O)[O-]`: the inhibition (viability loss, TRAIL sensitization) is inactive: -6.97%.

Turning to `CC(C)(C)C(=O)NC(Sc1ccccc1)C(Cl)(Cl)Cl` (stereo not given), the inhibition (viability loss, TRAIL sensitization) is inactive: 12.7%.

For `N#C/C(=C\c1ccc(N(CCBr)CCBr)cc1)C(N)=O`, the inhibition (viability loss, TRAIL sensitization) was inactive: 7.2%.

As for `CC(=O)c1ccc(N2CC2c2ccncc2)cc1` (stereo not given), the inhibition (viability loss, TRAIL sensitization) was inactive: -5.78%.

Consider `COC(=O)C1(C)COP(=O)(NCc2ccccc2)OC1` (stereo not given), for which the inhibition (viability loss, TRAIL sensitization) is inactive: -12.7%.

Turning to `Cc1ccccc1CN(C)C(=O)COC(=O)C(O)(c1ccccc1)c1ccccc1`, the inhibition (viability loss, TRAIL sensitization) was inactive: -9.27%.

On to `C[C@@H]1C=CCP(=O)(Oc2ccccc2)O1` (stereo not given in full), for which the inhibition (viability loss, TRAIL sensitization) was inactive: -9.16%.

`C[C@H]1OP(=O)(Oc2ccccc2)C[C@@H]2O[C@@H]21` (stereo not given in full): the inhibition (viability loss, TRAIL sensitization) was inactive: -18%.

Take `CC(=O)Nc1ccc([As](=O)(O)O)c(O)c1`: the inhibition (viability loss, TRAIL sensitization) is inactive: -1.35%.

As for `CC(=O)Nc1ccc(Oc2c([N+](=O)[O-])cc([N+](=O)[O-])cc2[N+](=O)[O-])cc1`, the inhibition (viability loss, TRAIL sensitization) was inactive: -1.15%.

As to `O=C(NC1CCS(=O)(=O)C1)NP(=S)(Oc1ccccc1)Oc1ccccc1` (stereo not given), the inhibition (viability loss, TRAIL sensitization) was inactive: -8.08%.

As for `CCNC(=S)/N=C(\N)N[N+](=O)[O-]`, the inhibition (viability loss, TRAIL sensitization) was inactive: 3.45%.

On to `c1ccc(-c2nn[nH]n2)c(-c2nn[nH]n2)c1`, for which the inhibition (viability loss, TRAIL sensitization) was inactive: 24.3%.

Take `Cc1ccc(NP(=O)(Oc2cccc(C)c2)Oc2cccc(C)c2)nc1`: the inhibition (viability loss, TRAIL sensitization) is inactive: -7.23%.

For `O=P1(N(CCCl)CCCl)OCCC2CCCCN21` (stereo not given), the inhibition (viability loss, TRAIL sensitization) was inactive: 5.52%.

`COC(=O)c1cc2c(s1)N=C(c1ccccc1)N(C)P2(=O)N1CCOCC1` (stereo not given): the inhibition (viability loss, TRAIL sensitization) is inactive: 7.05%.

As for `Cc1ccc(OP(=O)(Nc2ccccn2)Oc2ccc(C)cc2)cc1`, the inhibition (viability loss, TRAIL sensitization) is inactive: 1.64%.

As to `CC(=O)NC(SC(=S)N(CC(C)C)CC(C)C)C(Cl)(Cl)Cl` (stereo not given), the inhibition (viability loss, TRAIL sensitization) is inactive: 12.5%.

On to `O=C(OC1CN2CCC1CC2)c1ccccc1` (stereo not given), for which the inhibition (viability loss, TRAIL sensitization) is inactive: -9.88%.

For `CCC(=O)N1C2C3N(C(=O)CC)C1C1N(C(=O)CC)C(C(N1C(=O)CC)N3C(=O)CC)N2C(=O)CC`, the inhibition (viability loss, TRAIL sensitization) is inactive: 11%.

As for `Cc1ccccc1OP(=O)(Nc1ccccn1)Oc1ccccc1C`, the inhibition (viability loss, TRAIL sensitization) is inactive: 3.1%.

For the compound `CC(NC(=O)COC(=O)C(O)(c1ccccc1)c1ccccc1)c1ccccc1` (stereo not given), the inhibition (viability loss, TRAIL sensitization) is inactive: 8.22%.

As to `CN(C)C(=O)Oc1noc2ccccc12`, the inhibition (viability loss, TRAIL sensitization) is inactive: -7.06%.

On to `O=c1c2cc([N+](=O)[O-])ccc2[nH]c2c([N+](=O)[O-])cc([N+](=O)[O-])cc12`, for which the inhibition (viability loss, TRAIL sensitization) is inactive: 10.2%.

Regarding `O=C(O)c1ccccc1[As](=O)(O)O`, the inhibition (viability loss, TRAIL sensitization) is inactive: -10.7%.

With `CC(=O)Nc1ccc([As](=O)(O)O)cc1`, the inhibition (viability loss, TRAIL sensitization) was inactive: -3.77%.

Regarding `CCCC1OP(N)(=O)OCC1CC` (stereo not given), the inhibition (viability loss, TRAIL sensitization) was inactive: 6.56%.

For the compound `CN(C)P(=O)(N(C)C)n1c(Nc2ccccc2)nnc1-c1ccccc1`, the inhibition (viability loss, TRAIL sensitization) was inactive: -6.38%.

In the case of `O=P(Nc1nc2ccc(Cl)cc2s1)(c1ccccc1)c1ccccc1`, the inhibition (viability loss, TRAIL sensitization) was inactive: 18.1%.

Take `CCOP(=O)(Nc1ccccc1)OCC`: the inhibition (viability loss, TRAIL sensitization) is inactive: -15.4%.

Turning to `Cc1cc(SC(NC(=O)c2ccc(F)cc2)C(Cl)(Cl)Cl)ncn1` (stereo not given), the inhibition (viability loss, TRAIL sensitization) is inactive: -5.19%.

As for `CN(C(=O)Cc1ccc(Cl)c(Cl)c1)[C@H]1CCCC[C@@H]1N1CCCC1`, the inhibition (viability loss, TRAIL sensitization) is inactive: 6.13%.

Take `Cc1ccc(NP(=O)(Oc2ccccc2F)Oc2ccccc2F)nc1`: the inhibition (viability loss, TRAIL sensitization) is inactive: 0.745%.

In the case of `CCN(N=Nc1nonc1N)c1nonc1N`, the inhibition (viability loss, TRAIL sensitization) was inactive: -6.11%.

For the compound `Nc1cccc2ccc([As](=O)(O)O)cc12`, the inhibition (viability loss, TRAIL sensitization) is inactive: 8.7%.

With `NC(=O)c1cc([N+](=O)[O-])cc([N+](=O)[O-])c1N`, the inhibition (viability loss, TRAIL sensitization) is inactive: -12.9%.

For the compound `CN(C(=O)Cc1ccc(Cl)c(Cl)c1)[C@H]1CCCC[C@H]1N1CCCC1`, the inhibition (viability loss, TRAIL sensitization) was inactive: -3.84%.

For the compound `Cc1ccc(N/C(=N/P(=O)(N2CCOCC2)N2CCOCC2)N2CCOCC2)cc1`, the inhibition (viability loss, TRAIL sensitization) is inactive: -3.71%.

With `COc1ccccc1OP(=O)(Nc1ccc(C)cn1)Oc1ccccc1OC`, the inhibition (viability loss, TRAIL sensitization) is inactive: -5.42%.

On to `Cc1ccc(OP(=O)(Nc2nccs2)Oc2ccc(C)cc2)cc1`, for which the inhibition (viability loss, TRAIL sensitization) is inactive: -10.3%.

`Clc1ccc(Cl)c(NC2=NCC(CBr)S2)c1` (stereo not given): the inhibition (viability loss, TRAIL sensitization) was inactive: 2.22%.

Regarding `CN1CCCC(OC(=O)C(c2ccccc2)c2ccccc2)C1` (stereo not given), the inhibition (viability loss, TRAIL sensitization) was inactive: -4.54%.

Regarding `CC(C)CC(=O)NC(Sc1ccc(Cl)cc1)C(Cl)(Cl)Cl` (stereo not given), the inhibition (viability loss, TRAIL sensitization) was inactive: -18.3%.

Take `Nc1cc(N)c2nonc2c1[N+](=O)[O-]`: the inhibition (viability loss, TRAIL sensitization) is inactive: 16.5%.

`Oc1ccccc1CNc1ccccn1`: the inhibition (viability loss, TRAIL sensitization) is inactive: -6.91%.

For the compound `O=C(NC(Sc1ccncn1)C(Cl)(Cl)Cl)c1ccccc1` (stereo not given), the inhibition (viability loss, TRAIL sensitization) is inactive: -13.2%.

For `O=[N+]([O-])C1C(O)C(O)C([N+](=O)[O-])C(O)C1O` (stereo not given), the inhibition (viability loss, TRAIL sensitization) is inactive: -8.15%.

The record behind these values is PubChem BioAssay AID624354 (Sanford-Burnham Center for Chemical Genomics, 2012).
